This assay concerns Alpha-1D/Alpha-1A adrenergic receptor (Homo sapiens). Nature of the assay: Ratio of binding affinity towards Alpha1d to Alpha-1A.

For `CCOc1ccccc1N1CCN(CC(O)CNC(=O)c2ccc3c(c2)C(=O)N(c2cccc(F)c2)C3=O)CC1` (stereo unspecified), the Ratio turned out to be 32.

For `CC(C)Oc1ccccc1N1CCN(CCCNC(=O)c2ccc3c(c2)C(=O)N(c2ccc(N(C)C)cc2)C3=O)CC1`, the Ratio was found to be 83.

Regarding `CC(C)Oc1ccccc1N1CCN(CC(O)CNC(=O)c2ccc3c(c2)C(=O)N(c2ccc([N+](=O)[O-])cc2)C3=O)CC1` (stereo unspecified), the Ratio stood at 21.

Regarding `COc1ccc(N2C(=O)c3ccc(C(=O)NCCCN4CCN(c5ccccc5OC(C)C)CC4)cc3C2=O)cc1`, the Ratio was 145.

Regarding `COc1ccccc1N1CCN(CC(O)CNC(=O)c2ccc3c(c2)C(=O)N(c2cccc(F)c2)C3=O)CC1` (stereo unspecified), the Ratio amounted to 25.

Consider `CC(C)Oc1ccccc1N1CCN(CCCNC(=O)c2ccc3c(c2)C(=O)N(c2cccc(F)c2)C3=O)CC1`, for which the Ratio was found to be 54.

In the case of `CC(C)Oc1ccccc1N1CCN(CC(O)CNC(=O)c2ccc3c(c2)C(=O)N(c2ccc(Cl)cc2)C3=O)CC1` (stereo unspecified), the Ratio was 58.

As for `CC(C)Oc1ccccc1N1CCN(CC(O)CNC(=O)c2ccc3c(c2)C(=O)N(c2ccc(N(C)C)cc2)C3=O)CC1` (stereo unspecified), the Ratio came to 50.

On to `CC(C)Oc1ccccc1N1CCN(C[C@H](O)CNC(=O)c2ccc3c(c2)C(=O)N(c2cccc(F)c2)C3=O)CC1`, for which the Ratio is 8.

As to `CC(C)Oc1ccccc1N1CCN(CC(O)CNC(=O)c2ccc3c(c2)C(=O)N(c2cccc(F)c2)C3=O)CC1` (stereo unspecified), the Ratio was 50.

On to `CC(C)Oc1ccccc1N1CCN(CC(O)CNC(=O)c2ccc3c(c2)C(=O)N(c2ccc(F)cc2)C3=O)CC1` (stereo unspecified), for which the Ratio stood at 74.

For the compound `COC(CNC(=O)c1ccc2c(c1)C(=O)N(c1cccc(F)c1)C2=O)CN1CCN(c2ccccc2OC(C)C)CC1` (stereo unspecified), the Ratio came out at 595.

For the compound `CC(C)Oc1ccccc1N1CCN(C[C@@H](O)CNC(=O)c2ccc3c(c2)C(=O)N(c2ccc(O)cc2)C3=O)CC1`, the Ratio came out at 298.

Turning to `CC(C)Oc1ccccc1N1CCN(CC(O)CNC(=O)c2ccc3c(c2)C(=O)N(c2ccc(C(C)(C)C)cc2)C3=O)CC1` (stereo unspecified), the Ratio was 25.

Regarding `Cc1ccc(N2C(=O)c3ccc(C(=O)NC[C@H](O)CN4CCN(c5ccccc5OC(C)C)CC4)cc3C2=O)cc1`, the Ratio was found to be 186.

On to `Cc1cccc(N2C(=O)c3ccc(C(=O)NCC(O)CN4CCN(c5ccccc5OC(C)C)CC4)cc3C2=O)c1` (stereo unspecified), for which the Ratio was 81.

For the compound `CC(C)Oc1ccccc1N1CCN(C[C@@H](O)CNC(=O)c2ccc3c(c2)C(=O)N(c2cccc(F)c2)C3=O)CC1`, the Ratio is 186.

On to `CC(C)Oc1ccccc1N1CCN(C[C@@H](O)CNC(=O)c2ccc3c(c2)C(=O)N(c2ccc(N(C)C)cc2)C3=O)CC1`, for which the Ratio came out at 158.

In the case of `COc1ccccc1N1C(=O)c2ccc(C(=O)NCC(O)CN3CCN(c4ccccc4OC(C)C)CC3)cc2C1=O` (stereo unspecified), the Ratio is 49.

`Cc1ccc(N2C(=O)c3ccc(C(=O)NCC(O)CN4CCN(c5ccccc5OC(C)C)CC4)cc3C2=O)cc1` (stereo unspecified): the Ratio was 94.

With `CC(C)Oc1ccccc1N1CCN(CC(O)CNC(=O)c2ccc3c(c2)C(=O)N(c2ccc(O)cc2)C3=O)CC1` (stereo unspecified), the Ratio was 32.

The values are drawn from ChEMBL document CHEMBL1133729, “Design, synthesis, and structure-activity relationships of phthalimide-phenylpiperazines: a novel series of potent and selective alpha(1)(a)-adrenergic receptor antagonists” (J Med Chem, 2000).
